Protein sequences, listed by entry. Tags and fused reporters are not part of them.
UniProt P61169, whole entry: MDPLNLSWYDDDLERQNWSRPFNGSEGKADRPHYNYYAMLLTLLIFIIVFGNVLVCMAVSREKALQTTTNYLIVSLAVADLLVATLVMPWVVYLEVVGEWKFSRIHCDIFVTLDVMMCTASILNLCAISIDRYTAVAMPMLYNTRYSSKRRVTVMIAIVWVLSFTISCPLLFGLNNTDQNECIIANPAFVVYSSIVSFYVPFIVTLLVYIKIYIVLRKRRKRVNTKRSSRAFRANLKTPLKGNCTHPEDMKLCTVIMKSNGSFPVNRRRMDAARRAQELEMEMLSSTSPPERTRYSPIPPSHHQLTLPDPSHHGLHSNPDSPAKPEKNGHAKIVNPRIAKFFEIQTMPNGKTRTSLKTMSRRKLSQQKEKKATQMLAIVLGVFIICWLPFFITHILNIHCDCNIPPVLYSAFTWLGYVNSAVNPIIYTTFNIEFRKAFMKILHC

In ChEMBL document CHEMBL1149999, “Synthesis and pharmacological activity of a macrocyclic benzamide” (Bioorg Med Chem Lett, 1995):

Molecular target: D(2) dopamine receptor (Rattus norvegicus, UniProt P61169)
Test: Binding affinity against Dopamine receptor D2 using [3H]spiperone as radioligand in rat striatum
Format: tissue-based

Ki: 285 nM
Structure (SMILES): CCN(CC)CCNC(=O)c1cc(Cl)c(N)cc1OC [METOCLOPRAMIDE]
